Ab-14 light chain CDR variants: yeast mating affinities

Values reported by Li et al. 2023, doi:10.1038/s41467-023-39022-2 (FLAb copy).

The target is the same throughout: PDVDLGDISGINAS, from the HR2 region of SARS-CoV-2 spike.

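Phage display of a naive human antibody library on the peptide gave the parent. This is the validation round: designs drawn from the data on random variants, tested in the same kind of assay. Several design methods are mixed in this list. AlphaSeq pools MATa yeast showing the antibodies with MATalpha yeast showing the peptide. After mating in shaken culture at 30 °C for 16 h, diploids were selected and their barcode pairs sequenced. The ratio of observed to expected reads was calibrated, replicate by replicate, on BCL2-family standards whose Kd was known from biolayer interferometry. Mating was done six times.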

Parent: Ab-14, a human scFv built as VH, a (GGGGS)3 linker, VL. Only the CDRs of the light chain vary.
VH: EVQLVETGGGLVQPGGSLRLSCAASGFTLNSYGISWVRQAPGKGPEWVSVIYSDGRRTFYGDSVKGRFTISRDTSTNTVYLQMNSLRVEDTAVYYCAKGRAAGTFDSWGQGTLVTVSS
VL: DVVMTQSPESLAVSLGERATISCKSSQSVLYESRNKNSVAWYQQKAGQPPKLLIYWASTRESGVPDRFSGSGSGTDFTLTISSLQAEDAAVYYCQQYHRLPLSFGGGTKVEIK

Substitutions are numbered in sequence along the VL above, starting at 1 (not Kabat).
Variants here have at most six changes.
Kd is apparent (estimated from mating counts) and averaged on the log scale over replicates with a signal. Smaller is tighter.
In the paper, a design with two or fewer of six values counts as a poor binder.
Background: pairings of all light chain designs with three empty control strains gave a value in 4% of cases (median 430 nM, 5th percentile 38 nM). Values in that range, when seen in few replicates, are hard to tell from nonspecific mating. Also given: how often the same scFv was detected with the empty control strains.
Values of this round are not directly comparable with the first-round values of the same sequences.

For S25I+S28E+L30W+W56G+T59Q+E61C, the assay gave 550 pM (6 of 6 replicates; controls 0 of 18).
For K36H+W56T+S62E, the assay gave 15 nM (6 of 6 replicates; controls 1 of 18).
For L30F+W56E+S62D+S103T, the assay gave 2.4 nM (6 of 6 replicates; controls 1 of 18).
For S26M+Q96D, the assay gave 150 nM (4 of 6 replicates; controls 0 of 18).
For S25F+V29Y+S38A+W56N+T59Q, the assay gave 370 pM (6 of 6 replicates; controls 2 of 18).
For A40W, the assay gave 3.7 nM (6 of 6 replicates; controls 2 of 18).
For S25Q+W56Q+R99M, the assay gave 9.7 nM (6 of 6 replicates; controls 0 of 18).
For S25F+V29T+L30G+Y31A+R34N+N35L, the assay gave 7.1 nM (6 of 6 replicates; controls 0 of 18).
For S25L+S26V+V29E+S38N+W56G+T59Q, the assay gave 490 pM (6 of 6 replicates; controls 0 of 18).
For S28G+Y31T+T59I+S62Y+Y97P, the assay gave 140 nM (2 of 6 replicates; controls 0 of 18).
For S25V+S26P+Q27F+S38A+W56Q, the assay gave 7.4 nM (6 of 6 replicates; controls 0 of 18).
For S25M+Y31M+S33H+R34M+W56D+T59L, the assay gave 1.5 nM (6 of 6 replicates; controls 2 of 18).
For S25L+L30E+W56A, the assay gave 560 pM (6 of 6 replicates; controls 2 of 18).
For S25F+S28K+S33P+N35T+W56N, the assay gave 5.8 nM (6 of 6 replicates; controls 0 of 18).
For S25L+V29H+W56N+Q96D, the assay gave 1.2 nM (6 of 6 replicates; controls 0 of 18).
For S28G+W56E+L102N, the assay gave 25 nM (1 of 6 replicates; controls 0 of 18).
For S25F+V29F+W56D+T59Q, the assay gave 430 pM (6 of 6 replicates; controls 2 of 18).
For S25V+V29A+W56N, the assay gave 4.1 nM (6 of 6 replicates; controls 2 of 18).
For K36T, the assay gave 40 nM (6 of 6 replicates; controls 2 of 18).
For S25V+S26Q+W56N+S62D, the assay gave 430 pM (6 of 6 replicates; controls 0 of 18).
For S25L+S26P+V29H+W56N+S62Q, the assay gave 580 pM (6 of 6 replicates; controls 0 of 18).
For S25L+V29W+W56H+S62Q, the assay gave 1.6 nM (6 of 6 replicates; controls 0 of 18).
For Q27P+S28D+R34H+W56N+E61M, the assay gave 2.1 nM (6 of 6 replicates; controls 1 of 18).
For S25V+S26E+S33D+W56N+T59Q, the assay gave 360 pM (6 of 6 replicates; controls 2 of 18).
For S26P+W56A, the assay gave 930 pM (6 of 6 replicates; controls 2 of 18).
For K24H+Q27P+L30S+W56N, the assay gave 95 nM (5 of 6 replicates; controls 1 of 18).
For S25V+V29W+L30D+W56N, the assay gave 1.7 nM (6 of 6 replicates; controls 1 of 18).
For S25L+Q27N+R99D, the assay gave 31 nM (6 of 6 replicates; controls 2 of 18).
For W56K+Q96D, the assay gave 42 nM (6 of 6 replicates; controls 1 of 18).
For V29K+K36M+W56N, the assay gave 620 pM (6 of 6 replicates; controls 1 of 18).
For S25L+W56G+Q96D, the assay gave 4.1 nM (6 of 6 replicates; controls 0 of 18).
For Y31N+T59H+P101L, the assay gave 600 nM (2 of 6 replicates; controls 0 of 18).
For S25L+V29M+W56N+S62Q, the assay gave 750 pM (6 of 6 replicates; controls 1 of 18).

For reference, 5 entries of the list once more:

| changes | apparent Kd | detected | empty controls |
|---|---|---|---|
| S25L+V29W+W56H+S62Q | 1.6 nM | 6 of 6 | 0 of 18 |
| S25I+S28E+L30W+W56G+T59Q+E61C | 550 pM | 6 of 6 | 0 of 18 |
| S25V+S26P+Q27F+S38A+W56Q | 7.4 nM | 6 of 6 | 0 of 18 |
| Y31N+T59H+P101L | 600 nM | 2 of 6 | 0 of 18 |
| A40W | 3.7 nM | 6 of 6 | 2 of 18 |